Results on one substance are retold here after paper doi:10.1101/2024.12.09.627393.

The chains behind the UniProt entries cited, without tags or fusion partners. Residues count along the entry.
UniProt Q9BXF3, 424-538: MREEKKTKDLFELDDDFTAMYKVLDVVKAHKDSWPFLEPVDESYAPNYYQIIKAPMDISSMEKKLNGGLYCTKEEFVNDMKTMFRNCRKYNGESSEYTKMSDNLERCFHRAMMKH

The assay has as its target CECR2 bromodomain (CECR2-BRD), wild type, GST tag cleaved (human) (UniProt Q9BXF3). Kind of assay: ITC; peptide ligand in the syringe (0.6-[…]), CECR2-BRD in the sample cell (0.05-0.10 mM); 5°C; 20 mM sodium phosphate pH 7.0, 150 mM NaCl, 1 mM TCEP; single set of binding sites model; binding runs in triplicate.

As to RelAK310ac (305–315) peptide, the Kd (usually a measure of binding affinity in units of concentration) stood at 112 µM and the stoichiometry N (as a rule, the number of molecules, sites or subunits per partner or assembly) was 1.
